{"source": "patent US10139419B2", "about": "“Methods for detecting Aβ oligomers” (SYSTEM OF SYSTEMS ANALYTICS, INC., priority 2014, dated 2018)", "key": {"[1]": {"target": "T1, Aβ oligomer associated with erythrocytes (Homo sapiens, UniProt P05067)", "T1 construct": "from tissue; host or cells: whole blood, erythrocytes gated by flow cytometry", "test": "Flow cytometry assay on erythrocytes in whole blood with FITC-labeled peptide probe", "type": "cell-based", "details": "first samples (endogenous Aβ oligomer only); subject with Alzheimer's Disease vs normal subject", "protocol": "A first sample containing whole blood is obtained from a subject by venipuncture and collected in EDTA tubes. Peptide probe labeled with FITC (PEP-11) stored in organic solvent is brought to room temperature. The organic solvent is then removed by rotovaporation or air evaporation. The first sample is then diluted in HEPES-buffered saline and subsequently combined with the peptide probe solution. The resulting combination is stored in the dark at room temperature for up to an hour, in order to allow the labeled peptide probe to bind to (e.g., associate with and/or form a complex with) any Aβ oligomer associated with cells present in the first test sample. A second sample containing whole blood is obtained in the same manner as described above. The second sample is then diluted in HEPES-buffered saline and subsequently combined with synthetic Aβ oligomer, allowing the synthetic Aβ oligomer to bind to cells (e.g., associate with and/or form a complex with) present in the second sample or any Aβ oligomer associated with the cells. […] The erythrocytes in the test samples are gated in logarithmic forward/side scatter dot plots, and the fluorescence of the FITC labels are detected by appropriate bandpass filters. […] The samples are processed and analyzed in accordance with the procedure in EXAMPLE 1."}, "[2]": {"target": "T2, Aβ oligomer associated with platelets (Homo sapiens, UniProt P05067)", "T2 construct": "from tissue; host or cells: platelet rich plasma (platelets)", "test": "Flow cytometry on platelets in platelet rich plasma", "type": "cell-based", "details": "without and with synthetic Aβ oligomer", "protocol": "A first sample containing platelet rich plasma (PRP) is obtained by separating whole blood or from a frozen sample of previously separated whole blood. The first sample is verified to contain PRP by flow cytometry (e.g., by detecting CD-41 as a surface marker). Peptide probe labeled with FITC (PEP-11) stored in organic solvent is brought to room temperature. The organic solvent is removed by rotovaporation or air evaporation. The first sample is diluted in HEPES-buffered saline and subsequently combined with the peptide probe solution. The resulting combination is stored in the dark at room temperature for up to an hour, in order to allow the labeled peptide probe to bind to any Aβ oligomer associated with platelets present in the first sample. A second sample containing PRP is obtained in the same manner as described above. The second sample is diluted in HEPES-buffered saline and subsequently combined with synthetic Aβ oligomer, and the synthetic Aβ oligomer is allowed to bind to any Aβ oligomer associated with platelets present in the second sample. Peptide probe labeled with FITC (PEP-11) stored in organic solvent is brought to room temperature. […] The platelets in the test samples are gated in logarithmic forward/side scatter dot plots, and the fluorescence of the FITC labels are detected by appropriate bandpass filters."}, "Aβ oligomer [3]": {"target": "T3, Aβ oligomer (Homo sapiens, UniProt P05067)", "test": "Flow cytometry on cerebrospinal fluid", "type": "binding", "details": "CSF diluted in HEPES-buffered saline", "protocol": "Cerebrospinal fluid (CSF) is obtained from a subject by either lumbar puncture or from a previously separated frozen sample (clinical collection). Peptide probe labeled with FITC (PEP-11) stored in organic solvent is brought to room temperature. The organic solvent is removed by rotovaporation or air evaporation. The CSF is diluted in HEPES-buffered saline and combined with the peptide probe solution. The resulting combination is stored in the dark at room temperature for up to an hour, in order to allow the labeled peptide probe to bind to any Aβ oligomer present in the first test sample.\nThe sample is subjected to a FACScan flow cytometer in TruCount Tubes. Any Aβ oligomer in the test sample is gated in logarithmic forward/side scatter dot plots, and the fluorescence of the FITC labels are detected by appropriate bandpass filters. Complexes comprising labeled peptide probe and Aβ oligomer are detected."}, "Aβ oligomer [4]": {"target": "T3, Aβ oligomer", "test": "PLISA using PEP-11 peptide probes on Aβ monomer, oligomer and fiber", "type": "binding", "source_text": "Different aggregate forms of Aβ protein (monomer, oligomer, and fiber) are subjected to PLISA using different PEP-11 peptide probe (Pep11-a, Pep11-b and Pep11-ds) and a control sample without PEP-11 peptide probe. Both Pep11-a and Pep11-b consist of SEQ ID NO:64, at a purity of 86% (standard) and 95% (high), respectively, as determined by high performance liquid chromatography (200 nm, C18, linear gradient). PEP-11ds is also represented by SEQ ID NO:64, but has a disulfide bridge at the two cysteines. High performance liquid chromatography (200 nm, C18, linear gradient) determined the purity of PEP-11ds to be 86.46%."}}}
{"substance": "PEP-11: WT17-35 with FITC and d-Arginine at C-Terminal", "values": [{"measurement": "FITC signal (fluorescence intensity) of peptide probe-endogenous Aβ oligomer-erythrocyte complexes", "setting": "[1]", "value": "great than that corresponding to the normal subject"}, {"measurement": "detection of labeled peptide probe-Aβ oligomer-platelet complexes", "setting": "[2]", "value": "will be detected"}, {"measurement": "detection of complexes comprising labeled peptide probe and Aβ oligomer", "setting": "Aβ oligomer [3]", "value": "are detected"}, {"measurement": "preferential detection/binding of Aβ oligomer as compared to Aβ monomer or fiber", "setting": "Aβ oligomer [4]", "value": "preferentially binds to Aβ oligomer"}]}
